Assay results: patent US6380373B1, “Steroid receptor coactivator compositions and methods of use” (Baylor College of Medicine, priority 1995, dated 2002)

Molecular target: T1, GST-PRA (Homo sapiens, UniProt P06401)
T1 construct: made in house; host or cells: Sf9 insect cells (baculovirus)
T1 sequence (P06401 1-769 isoform P06401-2): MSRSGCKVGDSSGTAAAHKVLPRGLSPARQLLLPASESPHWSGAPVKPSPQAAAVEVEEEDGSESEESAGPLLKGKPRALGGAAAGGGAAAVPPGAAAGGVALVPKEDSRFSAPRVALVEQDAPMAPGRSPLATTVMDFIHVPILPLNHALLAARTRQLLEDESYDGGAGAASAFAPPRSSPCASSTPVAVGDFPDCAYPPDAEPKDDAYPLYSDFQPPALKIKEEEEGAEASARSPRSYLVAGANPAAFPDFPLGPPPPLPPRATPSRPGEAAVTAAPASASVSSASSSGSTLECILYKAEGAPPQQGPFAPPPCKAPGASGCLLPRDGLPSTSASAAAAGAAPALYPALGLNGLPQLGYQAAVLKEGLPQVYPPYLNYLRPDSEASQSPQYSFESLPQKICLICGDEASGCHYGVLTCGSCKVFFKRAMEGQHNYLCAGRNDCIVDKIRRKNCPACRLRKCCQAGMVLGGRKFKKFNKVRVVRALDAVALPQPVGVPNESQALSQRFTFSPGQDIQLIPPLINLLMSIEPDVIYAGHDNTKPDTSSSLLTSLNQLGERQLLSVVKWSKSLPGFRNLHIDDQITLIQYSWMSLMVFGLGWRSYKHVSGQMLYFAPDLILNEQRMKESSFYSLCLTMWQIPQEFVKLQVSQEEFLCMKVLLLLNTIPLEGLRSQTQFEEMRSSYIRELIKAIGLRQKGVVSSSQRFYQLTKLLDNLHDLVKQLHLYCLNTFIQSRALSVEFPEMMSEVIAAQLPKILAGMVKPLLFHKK
Assay: In vitro binding of [35S]met-SRC-1(0.8) to GST-PRA on glutathione-Sepharose beads
Settings: receptor bound to 10^−6 M ligand

- binding of [35S]SRC-1(0.8) to GST-PRA affinity column: retained
SMILES: CC(=O)[C@H]1CC[C@H]2[C@@H]3CCC4=CC(=O)CC[C@]4(C)[C@H]3CC[C@]12C [progesterone]
